According to PubChem BioAssay AID2805 (Sanford-Burnham Center for Chemical Genomics, 2010):
Only a part is listed here, and it is no random draw. Active and inactive are the calls of the source.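 Rule for the calls: active = activation factor of at least 2 at 20 µM; inactive = the rest.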

These compounds were tested on intestinal alkaline phosphatase [Mus musculus] (assay: activators of mouse IAP, primary screen, biochemical, luminescence, uHTS (AID 2805)). Details: muIAP, CDP-Star luminescence, 30 min; at 10 µM; stronger effect = higher value; 1 = vehicle-only enzyme signal, 0 = enzyme-free wells.
Method in brief: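 System: mouse IAP enzyme. Reagent: CDP-Star chemiluminescent phosphatase substrate. Benchmarks: DMSO wells, no-enzyme wells. Times: 30 min enzyme-substrate-compound incubation at room temperature. Detection: luminescence from enzymatic CDP-Star hydrolysis. Doses: test compounds delivered from DMSO solution.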

SMILES	activation factor
Cc1ccc(OP(=O)(Nc2ccccn2)Oc2ccc(C)cc2)cc1	inactive: 1.05
CC(=O)NC(SC(=S)N(CC(C)C)CC(C)C)C(Cl)(Cl)Cl (configuration not stated)	inactive: 1.04
COC(=O)c1cc2c(s1)N=C(c1ccccc1)N(C)P2(=O)N1CCOCC1 (configuration not stated)	inactive: 1.03
CCC(=O)N1C2C3N(C(=O)CC)C1C1N(C(=O)CC)C(C(N1C(=O)CC)N3C(=O)CC)N2C(=O)CC	inactive: 0.956
O=C(OC1CN2CCC1CC2)c1ccccc1 (configuration not stated)	inactive: 1.06
Cc1ccc(NP(=O)(Oc2ccccc2F)Oc2ccccc2F)nc1	inactive: 1.08
CN(C(=O)Cc1ccc(Cl)c(Cl)c1)[C@H]1CCCC[C@@H]1N1CCCC1	inactive: 1.02
CCOP(=O)(Nc1ccccc1)OCC	inactive: 0.905
Cc1cc(SC(NC(=O)c2ccc(F)cc2)C(Cl)(Cl)Cl)ncn1 (configuration not stated)	inactive: 1.04
O=C(O)c1ccccc1[As](=O)(O)O	inactive: 0.955
CC(=O)Nc1ccc([As](=O)(O)O)cc1	inactive: 1.02
O=P(Nc1nc2ccc(Cl)cc2s1)(c1ccccc1)c1ccccc1	inactive: 1.04
CCN(N=Nc1nonc1N)c1nonc1N	inactive: 0.844
O=[N+]([O-])c1cc([N+](=O)[O-])c(CCN2CCOCC2)c([N+](=O)[O-])c1	inactive: 0.772
Cc1ccc(OP(=O)(Nc2nccs2)Oc2ccc(C)cc2)cc1	inactive: 0.892
COc1ccccc1OP(=O)(Nc1ccc(C)cn1)Oc1ccccc1OC	inactive: 0.945
Clc1ccc(Cl)c(NC2=NCC(CBr)S2)c1 (configuration not stated)	inactive: 1.02
CN1CCCC(OC(=O)C(c2ccccc2)c2ccccc2)C1 (configuration not stated)	inactive: 0.943
NC(=O)c1cc([N+](=O)[O-])cc([N+](=O)[O-])c1N	inactive: 1.08
Cc1ccc(N/C(=N/P(=O)(N2CCOCC2)N2CCOCC2)N2CCOCC2)cc1	inactive: 0.884
CN(C(=O)Cc1ccc(Cl)c(Cl)c1)[C@H]1CCCC[C@H]1N1CCCC1	inactive: 0.97

SMILES	activation factor
CC(C)CC(=O)NC(Sc1ccc(Cl)cc1)C(Cl)(Cl)Cl (configuration not stated)	inactive: 1.07
Nc1cc(N)c2nonc2c1[N+](=O)[O-]	inactive: 0.878
Cc1c2non([O-])c-2c(C)[n+](=O)[n+]1[O-]	inactive: 1.02
O=C(NC(Sc1ccncn1)C(Cl)(Cl)Cl)c1ccccc1 (configuration not stated)	inactive: 1.08
Oc1ccccc1CNc1ccccn1	inactive: 1.03
O=[N+]([O-])c1cccc2n[nH]nc12	inactive: 0.937
CC(=O)N1C2C3N(C(C)=O)C1C1N(C(C)=O)C(C(N1C(C)=O)N3C(C)=O)N2C(C)=O	inactive: 0.952
CCc1nc2c(n1)c1c(non1O)c1c2no[n+]1[O-]	inactive: 0.939
O=[N+]([O-])c1cc([N+](=O)[O-])c(CCNc2ccccc2)c([N+](=O)[O-])c1	inactive: 0.878
Cc1ccc(NP(=O)(Oc2ccccc2)Oc2ccccc2)nc1	inactive: 1.18
COc1ccc(C2=NCC(CBr)S2)cc1 (configuration not stated)	inactive: 1.06
CN(C)C(=O)OCCc1n(C)cc[n+]1C	inactive: 0.965
CC(C)=N/N=C(\N)N[N+](=O)[O-]	inactive: 1.03
CC1CCN(C(=O)Oc2c(Cl)cc(Cl)c3cccnc23)CC1	inactive: 0.964
C[N+]1=C2C=CC=CC=C2SC12C([N+](=O)[O-])=CC([N+](=O)[O-])=C[C-]2[N+](=O)[O-] (configuration not stated)	inactive: 0.396
Nc1ccc([As](=O)(O)c2ccc(N)cc2)cc1	inactive: 0.982
CCN(/C(=N/P(=O)(N1CCOCC1)N1CCOCC1)N1CCOCC1)c1ccc(OC)cc1	inactive: 0.968
O=C(Nc1cc([As](=O)(O)O)ccc1O)c1ccccc1	inactive: 0.833
O=[N+]([O-])c1cccc(NC2=NCC(CBr)S2)c1 (configuration not stated)	inactive: 0.926
CC(C)(C)C(=O)NC(Sc1ccncn1)C(Cl)(Cl)Cl (configuration not stated)	inactive: 1.05
O=[N+]([O-])c1ncn(CCn2ncnc2[N+](=O)[O-])n1	inactive: 0.983
